The nature of data set [1]: Kinetic solubility in FaSSGF, FaSSIF, FeSSIF and water. The note with it: 37° C., 1 h. Type of data set: physicochemical.
Data set [2] can be described thus: Flowability (compressibility / Carr index by tap density tester). Type of data set: physicochemical. To be noted: tapped 1250 times; smaller index = better flowability. The protocol: Approximately 400 mg of sample was weighed into a 5-mL graduated cylinder, and the volume before tapped (Vo) was recorded. Then the sample was tapped for 1250 times by ZS-2E tap density tester and the volume after tapped (Vt) was recorded. The compressibility index (c) was calculated using the formula: c=(V0−Vf)/V0*100%. A smaller compressibility index indicates better flowability. The results are shown in Table 5 and indicate that Form CSI has better flowability.

`CCc1nc(-c2ccc3c(c2)CC[C@H]3NC(=O)c2cnn(C)c2)no1.CCc1nc(-c2ccc3c(c2)CC[C@H]3NC(=O)c2cnn(C)c2)no1.O=C(O)C(O)C(O)C(=O)O` [Form CSI]: the “Solubility (concentration of Compound I in solution)” value worked out at 0.0351 mg/mL in data set [1] (FaSSGF), 0.0423 mg/mL in data set [1] (FaSSIF), 0.1634 mg/mL in data set [1] (FeSSIF) and 0.0451 mg/mL in data set [1] (Water). For the same compound, in data set [2], the “Carr index (compressibility index)” value came to 21.8%.

In the case of `CCc1nc(-c2ccc3c(c2)CC[C@H]3NC(=O)c2cnn(C)c2)no1` [Form IV, reference compound], the “Solubility (concentration of Compound I in solution)” value worked out at 0.0299 mg/mL in data set [1] (FaSSGF), 0.0319 mg/mL in data set [1] (FaSSIF), 0.1033 mg/mL in data set [1] (FeSSIF) and 0.0338 mg/mL in data set [1] (Water). Moreover, the “Carr index (compressibility index)” value in data set [2] came to 25.0%.

The record behind these values is US20250382286A1, “CO-CRYSTAL OF AFICAMTEN, AND PREPARATION METHOD THEREFOR AND USE THEREOF” (CRYSTAL PHARMACEUTICAL (SUZHOU) CO., LTD., priority 2023, published 2025).
